# Test results from US5723103A, “Substituted benzamides and radioligand analogs and methods of use” (Vanderbilt University, priority 1994, dated 1998).
# Like-named read-outs stand apart in the source and are kept apart here.
# Assays:
# [1] = molecular target: T1, 5-HT-3 receptor (Rattus norvegicus, UniProt P35563); conditions: for Ki: displacement of [^125 I]-4 binding, Table 1, rat entorhinal cortex homogenates, calculated from IC50 values, 0.64 nM [^125 I]4 (KD 1.5 nM)
# T1 sequence (P35563 24-483): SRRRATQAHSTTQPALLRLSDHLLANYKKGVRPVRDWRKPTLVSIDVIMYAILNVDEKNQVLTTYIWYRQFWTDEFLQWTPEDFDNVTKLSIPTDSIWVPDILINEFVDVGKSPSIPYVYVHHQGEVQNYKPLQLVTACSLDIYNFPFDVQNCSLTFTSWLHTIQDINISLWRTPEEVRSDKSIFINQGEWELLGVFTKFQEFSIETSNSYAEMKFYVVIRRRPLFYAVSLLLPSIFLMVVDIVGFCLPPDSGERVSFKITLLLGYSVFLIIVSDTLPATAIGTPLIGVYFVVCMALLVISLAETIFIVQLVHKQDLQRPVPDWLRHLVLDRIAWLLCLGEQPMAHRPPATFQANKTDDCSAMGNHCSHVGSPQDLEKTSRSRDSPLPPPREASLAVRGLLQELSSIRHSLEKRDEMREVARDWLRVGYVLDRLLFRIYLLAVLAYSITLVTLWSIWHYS
# [2] = molecular target: T1, 5-HT-3 receptor; set-up: iodozacopride in various regions of the rat brain; from tissue; host or cells: rat brain regions (amygdala, frontal cortex, entorhinal cortex, hippocampus, hypothalamus, striatum, thalamus, cerebellum); conditions: 0.6 nM ligand, defined by ondansetron, Laporte et al. 1992, cited from earlier work
# [3] = molecular target: T1, 5-HT-3 receptor; assay: Specific binding of [^125 I]-4 in various regions of the rat brain; set-up: iodozacopride in various regions of the rat brain; from tissue; host or cells: rat brain regions (amygdala, frontal cortex, entorhinal cortex, hippocampus, hypothalamus, striatum, thalamus, cerebellum); conditions: 1.5 nM ligand, defined by 10 uM bemesetron, assuming 10% protein concentration
# Experimental: iodozacopride in various regions of the rat brain. Zacopride is
# ^(a) Specific binding of 1.5 nM [^125 I4 defined by 10 uM
# bemesetron (MDL 72222), assuming 10% protein concentration.
SMILES,Ki [1],also measured
C=CCOc1ccc(I)cc1C(=O)N[C@@H]1CN2CCC1CC2 [TDP 918],10 nM,
COc1cc(Br)cc(C(=O)N[C@@H]2CN3CCC2CC3)c1OC [TDP 923],0.45 nM,
CCOc1cc(Br)cc(C(=O)N[C@@H]2CN3CCC2CC3)c1OC [TDP 924],0.17 nM,
COc1cc(Cl)cc(C(=O)N[C@@H]2CN3CCC2CC3)c1OCCF [TDP 994],0.31 nM,
COc1ccc(F)cc1C(=O)N[C@@H]1CN2CCC1CC2 [TDP 1087],5.2 nM,
CCOc1c(OC)cc(I)cc1C(=O)N[C@@H]1CN2CCC1CC2 [TDP 1022],2.7 nM,
COc1cc(Cl)cc(C(=O)N[C@@H]2CN3CCC2CC3)c1OC/C=C/I [TDP 984],0.29 nM,
CC(C)Oc1c(I)cc(Cl)cc1C(=O)N[C@@H]1CN2CCC1CC2 [TDP 1062],0.72 nM,
O=C(N[C@@H]1CN2CCC1CC2)c1cc(Cl)cc(I)c1OCCF [TDP 1056],0.52 nM,
COc1cc(I)cc(C(=O)N[C@@H]2CN3CCC2CC3)c1OC [TDP 960],1.5 nM,
COc1c(OCCF)cc(Cl)cc1C(=O)N[C@@H]1CN2CCC1CC2 [TDP 999],0.2 nM,
O=C(N[C@@H]1CN2CCC1CC2)c1cc(I)ccc1OCCCF [TDP 921],24 nM,
O=C(N[C@@H]1CN2CCC1CC2)c1cc(Cl)cc(I)c1OCCCF [TDP 1050],1.25 nM,
COc1ccc(I)cc1C(=O)N[C@@H]1CN2CCC1CC2 [TDP 915],18 nM,
CC(C)Oc1ccc(I)cc1C(=O)N[C@@H]1CN2CCC1CC2 [TDP 919],5.6 nM,
C#CCOc1c(I)cc(Cl)cc1C(=O)N[C@@H]1CN2CCC1CC2 [TDP 1053],0.7 nM,
COc1cc(N)c([125I])cc1C(=O)NC1CN2CCC1CC2 (centres unmarked) [[^125 I]iodozacopride],,Specific binding of [^125 I]iodozacopride ([2]; Amygdala): 4.4 fmol/mg protein; Specific binding of [^125 I]iodozacopride ([2]; Cerebellum): 0.5 fmol/mg protein; Specific binding of [^125 I]iodozacopride ([2]; Entorhinal cortex): 3.1 fmol/mg protein; Specific binding of [^125 I]iodozacopride ([2]; Frontal cortex): 2.4 fmol/mg protein; Specific binding of [^125 I]iodozacopride ([2]; Hippocampus): 2.1 fmol/mg protein; Specific binding of [^125 I]iodozacopride ([2]; Hypothalamus): 1.1 fmol/mg protein; Specific binding of [^125 I]iodozacopride ([2]; Striatum): 1.0 fmol/mg protein
COc1c(I)cc(Cl)cc1C(=O)N[C@@H]1CN2CCC1CC2 [TDP 1040],0.11 nM,
C=CCOc1c(I)cc(Cl)cc1C(=O)N[C@@H]1CN2CCC1CC2 [TDP 1046],0.63 nM,
"COc1cc([125I])cc(C(=O)N[C@@H]2CN3CCC2CC3)c1OC [[^125 I]-4, (S)-N-[3-(1-azabicyclo[2.2.2]octyl)]-2,3-dimethoxy-5-[^125 I]iodobenzamide]",,Specific binding of [^125 I]-4 ([3]; Amygdala): 2.4 fmol/mprotein; Specific binding of [^125 I]-4 ([3]; Cerebellum): 0.3 fmol/mprotein; Specific binding of [^125 I]-4 ([3]; Entorhinal cortex): 2.4 fmol/mprotein; Specific binding of [^125 I]-4 ([3]; Frontal cortex): 2.1 fmol/mprotein; Specific binding of [^125 I]-4 ([3]; Hippocampus): 1.3 fmol/mprotein; Specific binding of [^125 I]-4 ([3]; Hypothalamus): 0.9 fmol/mprotein; Specific binding of [^125 I]-4 ([3]; Striatum): 0.7 fmol/mprotein; Specific binding of [^125 I]-4 ([3]; Thalamus): 0.5 fmol/mprotein; Stereoselectivity of [^125 I]4 ([1]; (S)-4 vs (R)-4): 14
CCCOc1c(I)cc(Cl)cc1C(=O)N[C@@H]1CN2CCC1CC2 [TDP 1065],0.8 nM,
CCCOc1ccc(I)cc1C(=O)N[C@@H]1CN2CCC1CC2 [TDP 9l7],16 nM,
CCOc1ccc(I)cc1C(=O)N[C@@H]1CN2CCC1CC2 [TDP 916],7.3 nM,
"COc1cc(I)cc(C(=O)N[C@H]2CN3CCC2CC3)c1OC [TDP 991, (R)-N-[3-1-Azabicyclo [2.2.2.]octyl]-5-iodo-2,3-dimethoxy-benzamide]",19 nM,
CCOc1c(I)cc(Cl)cc1C(=O)N[C@@H]1CN2CCC1CC2 [TDP 1059],0.4 nM,
COc1ccc(Br)cc1C(=O)N[C@@H]1CN2CCC1CC2 [TDP 922],7.2 nM,
O=C(N[C@@H]1CN2CCC1CC2)c1cc(I)ccc1OCCF [TDP 920],18 nM,
